{"sequences": {"note": "Amino acid sequences for entries named in this document (tags omitted).", "UniProt P35372, whole entry": "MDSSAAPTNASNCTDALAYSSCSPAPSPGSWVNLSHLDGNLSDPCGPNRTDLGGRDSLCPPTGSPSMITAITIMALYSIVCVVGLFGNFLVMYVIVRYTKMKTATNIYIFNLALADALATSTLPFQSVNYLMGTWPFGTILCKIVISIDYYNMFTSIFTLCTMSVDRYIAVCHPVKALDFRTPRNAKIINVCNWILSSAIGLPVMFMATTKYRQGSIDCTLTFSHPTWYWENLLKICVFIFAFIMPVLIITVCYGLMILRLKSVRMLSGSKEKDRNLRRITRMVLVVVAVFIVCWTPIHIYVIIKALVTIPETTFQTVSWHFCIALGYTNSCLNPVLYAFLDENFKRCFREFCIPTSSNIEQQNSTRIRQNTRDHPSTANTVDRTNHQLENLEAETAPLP"}, "source": "patent US8497287B2", "about": "“Aminotetralin compounds as mu opioid receptor antagonists” (priority 2007, dated 2013)", "biological_target": "human mu opioid receptor (Homo sapiens, UniProt P35372)", "conditions": "[3H]-Diprenorphine 0.5 nM, CHO-K1 membranes; tested form: TFA salt (by the procedure of Example 22)", "data": [{"smiles": "CCC1(CC)c2cc(C(N)=O)ccc2CC(OC)C1NCCCCCCC(N)=O", "note": "(stereo not shown)", "values": [{"measurement": "pKi value at the human mu opioid receptor", "result": 9.1}]}]}
